This note sets out measurements from US20060063715A1.

In this assay the target is TAG-72 antigen (tumor-associated glycoprotein 72) (human). Put plainly: competition ELISA against biotin-labeled CC49 IgG (competitor), TAG-72 in a human breast carcinoma extract. In general terms: ELISA stands for enzyme-linked immunosorbent assay.

Regarding “CC49/4-4-20 heterodimer Fv (fraction 5) with 217 linkers (bispecific antibody)”, the fold higher protein concentration needed to displace the labeled CC49 IgG (against CC49/212 single-chain Fv) came out at 200 fold.
